The values below come from patent US8263631B2, “Anti-cancer pharmaceutical compositions and methods for treating patients with cancer” (Daiichi Sankyo Company, Limited, priority 2006, dated 2012).

The subject of this assay is human non-small-cell lung cancer line A549. The assay is described as follows: In vitro cell proliferation inhibitory activity, combination with VEGFR and Raf kinase inhibitor. Particulars: A549, 144 h, read-out: Proliferation inhibition rate. The format is cell-based. On the procedure:
Human non-small-cell lung cancer line A549 cells were inoculated on a 96-well plate at 5×10^2 cells/well, and at the same time, agents of various concentrations dissolved in DMSO were added so that the concentration of DMSO became 0.1%. […] After addition of the drugs, the cells were cultivated in the presence of 5% carbon dioxide at 37° C. for 6 days. Then, Cell Titer 96 Aqueous One Solution Reagent (Promega Corp.) was added at 40 μl/well each, and then absorbance A490 of each well was measured using MICROPLATE READER (Bio-Rad Laboratories, Inc.).

Take `CNC(=O)c1cc(Oc2ccc(NC(=O)Nc3ccc(Cl)c(C(F)(F)F)c3)cc2)ccn1` [Sorafenib, sorafenib, reference compound]: the inhibition at 5 µM was determined as 47%.
